Data on one compound can be found in patent US7101890B2, “Benzazepine derivatives, drugs containing these and use of the same for producing drugs” (priority 1996, dated 2006).

By UniProt entry, the sequences of proteins in these tests, tags left out. Residues count along the entry.
UniProt P06276, 29-602 limits assumed: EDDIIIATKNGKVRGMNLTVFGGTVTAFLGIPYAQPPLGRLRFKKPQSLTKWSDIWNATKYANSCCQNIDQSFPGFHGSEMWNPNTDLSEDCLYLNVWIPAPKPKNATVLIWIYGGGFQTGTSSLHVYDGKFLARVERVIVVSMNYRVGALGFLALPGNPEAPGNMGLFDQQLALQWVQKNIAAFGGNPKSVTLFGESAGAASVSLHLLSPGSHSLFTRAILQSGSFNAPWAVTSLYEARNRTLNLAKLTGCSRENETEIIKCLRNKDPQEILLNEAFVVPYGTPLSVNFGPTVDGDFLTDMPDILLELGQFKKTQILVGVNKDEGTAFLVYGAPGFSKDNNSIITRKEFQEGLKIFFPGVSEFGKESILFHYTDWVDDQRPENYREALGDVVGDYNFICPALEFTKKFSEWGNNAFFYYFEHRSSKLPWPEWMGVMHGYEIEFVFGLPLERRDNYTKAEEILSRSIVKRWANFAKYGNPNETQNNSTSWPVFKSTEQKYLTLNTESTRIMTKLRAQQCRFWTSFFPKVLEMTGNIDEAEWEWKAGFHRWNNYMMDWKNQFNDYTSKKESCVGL

This experiment has as its target acetylcholine esterase (Homo sapiens, UniProt P06276). The experiment is described as follows: Inhibition of acetylcholine esterase, modified method of Ellmann, human serum. The format is biochemical. The note with it: read-out: IC50 in μMol; ACHE inhibition; human serum from a pool of 10 test subjects; 37° C., pH 7.8; compounds of general formula (I). A general note: DTNB colorimetry detects thiols as they appear.

One may read the IC50 as the concentration that gives 50% inhibition. For the compound `COc1ccc2c3c1O[C@H]1C[C@H](OC(=O)[C@H](Cc4ccccc4)NC(=O)OC(C)(C)C)C=C[C@@]31CCN(C)C2`, the IC50 stood at 100 µM.
